Source: PubChem BioAssay (NCI)
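96-well plates; 48 h exposure; 5 concentrations. Endpoints by linear interpolation between flanking doses. Not reached: highest tested concentration assigned. The concentration for 50% growth inhibition is given as GI50. TGI denotes the concentration required for complete inhibition of growth.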

Key:
Assay in all cases: NCI-60 cell line screen, 48 h
[1] = test system: 786-0 renal
[2] = test system: A498 renal
[3] = test system: A549 NSCLC
[4] = test system: ACHN renal
[5] = test system: CAKI-1 renal
[6] = test system: CCRF-CEM leukemia
[7] = test system: COLO 205 colon
[8] = test system: DMS 114 small cell lung
[9] = test system: DMS 273 small cell lung
[10] = test system: EKVX NSCLC
[11] = test system: HCC-2998 colon
[12] = test system: HCT-116 colon
[13] = test system: HCT-15 colon
[14] = test system: HL-60(TB) leukemia
[15] = test system: HOP-18 NSCLC
[16] = test system: HOP-62 NSCLC
[17] = test system: HT29 colon
[18] = test system: IGROV1 ovarian
[19] = test system: K-562 leukemia
[20] = test system: KM12 colon
[21] = test system: KM20L2 colon
[22] = test system: LOX IMVI melanoma
[23] = test system: LXFL 529 NSCLC
[24] = test system: M19-MEL melanoma
[25] = test system: MALME-3M melanoma
[26] = test system: MOLT-4 leukemia
[27] = test system: NCI-H226 lung
[28] = test system: NCI-H23 lung
[29] = test system: NCI-H322M lung
[30] = test system: NCI-H460 lung
[31] = test system: NCI-H522 lung
[32] = test system: OVCAR-3 ovarian
[33] = test system: OVCAR-4 ovarian
[34] = test system: OVCAR-5 ovarian
[35] = test system: OVCAR-8 ovarian
[36] = test system: RPMI-8226 leukemia
[37] = test system: SF-268 CNS
[38] = test system: SF-295 CNS
[39] = test system: SF-539 CNS
[40] = test system: SK-MEL-2 melanoma
[41] = test system: SK-MEL-28 melanoma
[42] = test system: SK-MEL-5 melanoma
[43] = test system: SK-OV-3 ovarian
[44] = test system: SN12C renal
[45] = test system: SNB-19 CNS
[46] = test system: SNB-75 CNS
[47] = test system: SNB-78 CNS
[48] = test system: SW-620 colon
[49] = test system: TK-10 renal
[50] = test system: U251 CNS
[51] = test system: UACC-257 melanoma
[52] = test system: UACC-62 melanoma
[53] = test system: UO-31 renal
[54] = test system: XF 498 CNS

S=P1(Oc2ccccc2)NNP2(=NP(Cl)(Cl)=NP(Cl)(Cl)=N2)NN1 (stereo not drawn)
GI50 [1]: > 100 µM | TGI [1]: > 100 µM | GI50 [2]: > 100 µM | TGI [2]: > 100 µM | GI50 [3]: > 100 µM | TGI [3]: > 100 µM | GI50 [4]: > 100 µM | TGI [4]: > 100 µM | GI50 [5]: > 100 µM | TGI [5]: > 100 µM | GI50 [6]: > 100 µM | TGI [6]: > 100 µM | GI50 [7]: > 100 µM | TGI [7]: > 100 µM | GI50 [8]: > 100 µM | TGI [8]: > 100 µM | GI50 [9]: > 100 µM | TGI [9]: > 100 µM | GI50 [10]: > 100 µM | TGI [10]: > 100 µM | GI50 [11]: > 100 µM | TGI [11]: > 100 µM | GI50 [12]: > 100 µM | TGI [12]: > 100 µM | GI50 [13]: > 100 µM | TGI [13]: > 100 µM | GI50 [14]: > 100 µM | TGI [14]: > 100 µM | GI50 [15]: > 100 µM | TGI [15]: > 100 µM | GI50 [16]: > 100 µM | TGI [16]: > 100 µM | GI50 [17]: > 100 µM | TGI [17]: > 100 µM | GI50 [18]: > 100 µM | TGI [18]: > 100 µM | GI50 [19]: > 100 µM | TGI [19]: > 100 µM | GI50 [20]: > 100 µM | TGI [20]: > 100 µM | GI50 [21]: > 100 µM | TGI [21]: > 100 µM | GI50 [22]: > 100 µM | TGI [22]: > 100 µM | GI50 [23]: > 100 µM | TGI [23]: > 100 µM | GI50 [24]: > 100 µM | TGI [24]: > 100 µM | GI50 [25]: > 100 µM | TGI [25]: > 100 µM | GI50 [26]: > 100 µM | TGI [26]: > 100 µM | GI50 [27]: > 100 µM | TGI [27]: > 100 µM | GI50 [28]: > 100 µM | TGI [28]: > 100 µM | GI50 [29]: > 100 µM | TGI [29]: > 100 µM | GI50 [30]: > 100 µM | TGI [30]: > 100 µM | GI50 [31]: > 100 µM | TGI [31]: > 100 µM | GI50 [32]: > 100 µM | TGI [32]: > 100 µM | GI50 [33]: > 100 µM | TGI [33]: > 100 µM | GI50 [34]: > 100 µM | TGI [34]: > 100 µM | GI50 [35]: > 100 µM | TGI [35]: > 100 µM | GI50 [36]: > 100 µM | TGI [36]: > 100 µM | GI50 [37]: > 100 µM | TGI [37]: > 100 µM | GI50 [38]: > 100 µM | TGI [38]: > 100 µM | GI50 [39]: > 100 µM | TGI [39]: > 100 µM | GI50 [40]: > 100 µM | TGI [40]: > 100 µM | GI50 [41]: > 100 µM | TGI [41]: > 100 µM | GI50 [42]: > 100 µM | TGI [42]: > 100 µM | GI50 [43]: > 100 µM | TGI [43]: > 100 µM | GI50 [44]: > 100 µM | TGI [44]: > 100 µM | GI50 [45]: > 100 µM | TGI [45]: > 100 µM | GI50 [46]: 85.2 µM | TGI [46]: > 100 µM | GI50 [47]: > 100 µM | TGI [47]: > 100 µM | GI50 [48]: > 100 µM | TGI [48]: > 100 µM | GI50 [49]: > 100 µM | TGI [49]: > 100 µM | GI50 [50]: > 100 µM | TGI [50]: > 100 µM | GI50 [51]: > 100 µM | TGI [51]: > 100 µM | GI50 [52]: > 100 µM | TGI [52]: > 100 µM | GI50 [53]: > 100 µM | TGI [53]: > 100 µM | GI50 [54]: > 100 µM | TGI [54]: > 100 µM
